From patent US20260327204A1, “DEGRADERS OF CYCLIN-DEPENDENT KINASE 12/13, COMPOSITIONS, AND USES THEREOF” (ZHEJIANG UNIVERSITY, priority 2023, published 2026) come the findings set out here.

Sequences of proteins named here, by UniProt entry; tags and fusion partners are left off.
UniProt Q9NYV4, whole entry: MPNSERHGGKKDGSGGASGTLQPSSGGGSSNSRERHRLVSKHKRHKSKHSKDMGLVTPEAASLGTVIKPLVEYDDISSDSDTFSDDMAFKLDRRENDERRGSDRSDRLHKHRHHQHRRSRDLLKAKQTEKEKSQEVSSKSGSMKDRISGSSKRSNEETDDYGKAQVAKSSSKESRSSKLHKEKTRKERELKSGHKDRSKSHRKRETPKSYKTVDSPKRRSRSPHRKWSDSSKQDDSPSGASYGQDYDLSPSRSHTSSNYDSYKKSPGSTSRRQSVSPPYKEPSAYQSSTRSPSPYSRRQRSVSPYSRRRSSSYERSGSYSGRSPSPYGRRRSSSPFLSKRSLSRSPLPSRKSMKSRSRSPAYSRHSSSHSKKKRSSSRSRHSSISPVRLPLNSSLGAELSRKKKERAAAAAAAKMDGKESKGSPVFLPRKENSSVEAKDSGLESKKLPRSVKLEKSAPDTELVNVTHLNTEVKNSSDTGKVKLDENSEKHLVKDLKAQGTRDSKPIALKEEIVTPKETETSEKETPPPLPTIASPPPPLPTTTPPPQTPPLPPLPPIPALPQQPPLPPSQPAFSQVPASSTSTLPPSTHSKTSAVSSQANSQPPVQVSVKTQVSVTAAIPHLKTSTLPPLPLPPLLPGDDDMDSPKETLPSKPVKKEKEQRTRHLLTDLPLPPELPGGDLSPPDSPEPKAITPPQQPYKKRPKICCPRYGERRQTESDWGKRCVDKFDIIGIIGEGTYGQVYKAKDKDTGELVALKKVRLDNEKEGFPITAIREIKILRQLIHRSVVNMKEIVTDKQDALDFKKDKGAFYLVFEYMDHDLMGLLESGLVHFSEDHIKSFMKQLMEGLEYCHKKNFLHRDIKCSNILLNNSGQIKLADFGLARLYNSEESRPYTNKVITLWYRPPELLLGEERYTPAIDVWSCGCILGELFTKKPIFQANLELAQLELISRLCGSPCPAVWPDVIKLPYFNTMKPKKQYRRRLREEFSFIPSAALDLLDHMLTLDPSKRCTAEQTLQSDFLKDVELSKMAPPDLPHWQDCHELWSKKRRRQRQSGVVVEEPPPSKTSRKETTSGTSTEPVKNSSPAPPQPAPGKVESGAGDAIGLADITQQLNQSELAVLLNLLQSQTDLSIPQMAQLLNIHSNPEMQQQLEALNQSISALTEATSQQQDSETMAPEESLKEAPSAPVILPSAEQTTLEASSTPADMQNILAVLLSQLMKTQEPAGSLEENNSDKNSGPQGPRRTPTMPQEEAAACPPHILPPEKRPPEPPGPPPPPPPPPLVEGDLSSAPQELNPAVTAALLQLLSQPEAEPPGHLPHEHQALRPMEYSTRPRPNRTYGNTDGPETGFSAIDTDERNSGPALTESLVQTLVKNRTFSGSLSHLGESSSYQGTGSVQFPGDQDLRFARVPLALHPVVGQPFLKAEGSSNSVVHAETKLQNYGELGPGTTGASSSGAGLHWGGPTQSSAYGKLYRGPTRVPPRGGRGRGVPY
UniProt Q14004, whole entry: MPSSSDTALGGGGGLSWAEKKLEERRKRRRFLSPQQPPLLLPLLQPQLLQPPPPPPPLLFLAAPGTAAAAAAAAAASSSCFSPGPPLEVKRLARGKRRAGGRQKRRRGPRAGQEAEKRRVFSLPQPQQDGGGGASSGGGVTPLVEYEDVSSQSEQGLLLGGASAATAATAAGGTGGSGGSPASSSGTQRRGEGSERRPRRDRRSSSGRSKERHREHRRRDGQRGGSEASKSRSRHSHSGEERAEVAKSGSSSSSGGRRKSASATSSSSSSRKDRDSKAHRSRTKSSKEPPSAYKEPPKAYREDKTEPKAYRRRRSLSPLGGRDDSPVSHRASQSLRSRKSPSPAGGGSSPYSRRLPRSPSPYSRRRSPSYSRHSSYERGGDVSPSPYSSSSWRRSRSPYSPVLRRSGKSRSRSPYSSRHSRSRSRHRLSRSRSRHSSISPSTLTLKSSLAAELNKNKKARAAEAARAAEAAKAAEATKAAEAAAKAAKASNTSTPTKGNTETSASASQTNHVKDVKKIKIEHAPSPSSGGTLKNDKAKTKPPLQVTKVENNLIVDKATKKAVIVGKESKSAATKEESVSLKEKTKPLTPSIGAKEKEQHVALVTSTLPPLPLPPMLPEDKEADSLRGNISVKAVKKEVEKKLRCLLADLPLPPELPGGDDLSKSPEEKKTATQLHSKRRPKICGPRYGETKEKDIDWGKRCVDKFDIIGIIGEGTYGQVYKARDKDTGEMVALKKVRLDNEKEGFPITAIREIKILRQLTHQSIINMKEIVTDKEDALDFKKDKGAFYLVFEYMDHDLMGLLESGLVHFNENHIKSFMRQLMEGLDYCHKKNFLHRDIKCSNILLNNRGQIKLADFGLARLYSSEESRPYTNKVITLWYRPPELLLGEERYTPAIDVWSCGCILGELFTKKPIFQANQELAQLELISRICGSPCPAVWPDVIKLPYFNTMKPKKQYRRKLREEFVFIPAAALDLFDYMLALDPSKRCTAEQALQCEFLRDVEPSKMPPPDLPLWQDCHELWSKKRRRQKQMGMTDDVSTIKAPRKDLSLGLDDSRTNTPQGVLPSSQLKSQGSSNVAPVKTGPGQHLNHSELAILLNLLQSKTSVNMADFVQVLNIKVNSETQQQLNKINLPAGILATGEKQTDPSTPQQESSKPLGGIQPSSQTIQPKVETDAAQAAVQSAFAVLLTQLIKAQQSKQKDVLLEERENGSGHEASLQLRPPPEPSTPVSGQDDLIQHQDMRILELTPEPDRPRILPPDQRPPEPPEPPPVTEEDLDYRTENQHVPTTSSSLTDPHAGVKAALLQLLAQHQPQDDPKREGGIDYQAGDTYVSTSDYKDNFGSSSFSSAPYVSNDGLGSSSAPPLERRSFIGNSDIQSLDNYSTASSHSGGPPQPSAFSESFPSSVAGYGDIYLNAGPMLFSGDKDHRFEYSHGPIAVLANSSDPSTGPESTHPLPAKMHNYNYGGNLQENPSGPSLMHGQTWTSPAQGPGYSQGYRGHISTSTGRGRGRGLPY
UniProt O75909, whole entry partner: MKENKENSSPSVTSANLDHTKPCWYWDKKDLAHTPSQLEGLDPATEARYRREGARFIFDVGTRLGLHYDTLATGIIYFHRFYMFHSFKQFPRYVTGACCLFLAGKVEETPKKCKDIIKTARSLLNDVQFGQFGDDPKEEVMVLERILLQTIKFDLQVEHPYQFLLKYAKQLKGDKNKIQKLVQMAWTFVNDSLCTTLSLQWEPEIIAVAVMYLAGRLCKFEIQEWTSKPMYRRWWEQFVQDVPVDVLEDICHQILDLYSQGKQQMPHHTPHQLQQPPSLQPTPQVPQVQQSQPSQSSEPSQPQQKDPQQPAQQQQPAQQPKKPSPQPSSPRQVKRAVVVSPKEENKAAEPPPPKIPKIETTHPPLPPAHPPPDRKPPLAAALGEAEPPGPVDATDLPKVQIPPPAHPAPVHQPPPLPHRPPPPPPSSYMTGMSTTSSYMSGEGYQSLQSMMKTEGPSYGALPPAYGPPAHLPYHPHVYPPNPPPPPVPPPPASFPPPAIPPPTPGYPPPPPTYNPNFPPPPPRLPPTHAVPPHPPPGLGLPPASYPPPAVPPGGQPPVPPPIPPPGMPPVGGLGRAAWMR

Experiment [1] concerns the target CDK12 (Homo sapiens, UniProt Q9NYV4). The experiment is described as follows: Western blot degradation of CDK12 (Example 2). The settings on record: read-out: CDK12 degradation Activity; DC50 classes; cell line not given. How it is done:
(§1) Western blot was used to determine the degradation of CDK12/13 protein in leukemia cells KASUMI-1, MV4-11, and Jurkat. The two compounds with the best degradation effects were further validated for their ability to degrade CDK12/13 protein in breast cancer cells MDA-MB-231 using a concentration gradient.
(§2) • Cell lines: KASUMI-1, MV4-11, Jurkat, or MDA-MB-231 • Culture medium: DMEM/RIPM-1640+10% Hyclone serum • Compound dissolution method: Compounds were dissolved in DMSO to prepare a 50 mM stock solution, and then diluted to the corresponding concentrations.
(§3) (1) In vitro cell culture: The selected cells were cultured in a 37 °C constant temperature incubator with 5% CO2. Once the cell density reached 70-90%, they were passaged for subsequent experiments.
(§4) (2) Cell seeding: Cells were digested, and the cell suspension was transferred to a 1.5 mL Eppendorf tube. After centrifugation at 1,000 rpm for 5 min, the cells were resuspended in 2 mL of culture medium and counted. The cell suspension was seeded in a 24-well plate at a density of 200,000 cells per well and allowed to adhere for 8-12 h.
(§5) (3) Compound treatment: The 50 mM compound stock solution was diluted with cell culture medium to a final concentration of 0.01 μM-3 μM. Cells were incubated in a 37 °C incubator with 5% CO2 for 3 h-48 h. […]
(§6) At the end of the treatment time, the cells were collected and washed once with PBS. […] After centrifugation at 12,000 rpm at room temperature for 30 min, the supernatant was transferred to a new EP tube for protein quantification.
(§7) The exposure results were quantitatively analyzed using Image J software. First, the grayscale values of the bands were calculated using Image J. Then, the grayscale value of the target protein was divided by the grayscale value of the internal reference protein for normalization. […]
(§8) In the figures, CDK12 and CDK13 are the target proteins under study, and β-Actin and GAPDH are the internal reference proteins. Internal reference proteins are used to indicate the total protein amount in each experimental group for quantitative analysis.

Experiment [2] concerns the target CDK13 (Homo sapiens, UniProt Q14004). The experiment is described as follows: Western blot degradation of CDK13 (Example 2). The conditions noted are these: read-out: CDK13 degradation Activity; DC50 classes; cell line not given. How it is done: as §1, §2, §3, §4, §5, §6, §7, §8
Background: In western blotting, separated proteins are transferred to a membrane and probed.

`N#Cc1ccc(N[C@H]2CC[C@H](N(C(=O)NCc3ccccc3)c3ccc(-c4ccc(OCCOCCOCCOCCNc5cccc6c5C(=O)N(C5CCC(=O)NC5=O)C6=O)nc4)cc3)CC2)nc1` (stereo partly drawn): the results for the DC50 in experiment [1] and in experiment [2] were 1000 to 3000 nM and 3000 to 10000 nM, respectively.
On to `Cc1ncsc1-c1ccc([C@H](C)NC(=O)[C@@H]2C[C@@H](O)CN2C(=O)[C@@H](NC(=O)CN2CCN(c3ccc(-c4ccc5c(c4)CN(Cc4ccccc4)C(=O)N5[C@H]4CC[C@H](Nc5ccc(C#N)cn5)CC4)cn3)CC2)C(C)(C)C)cc1`, for which the DC50 in experiment [1] and in experiment [2] was 1000 to 3000 nM each time.
Take `N#Cc1ccc(N[C@H]2CC[C@H](N3C(=O)N(Cc4ccccc4)Cc4cc(-c5ccc(OCCOCCOCCNc6cccc7c6C(=O)N(C6CCC(=O)NC6=O)C7=O)nc5)ccc43)CC2)nc1` (stereo partly drawn): the DC50 in experiment [1] and in experiment [2] was 1000 to 3000 nM each time.
